By Kd is commonly meant the concentration at which binding is half-saturated. Read a low Kd as higher affinity.

This note sets out measurements from PMC9599717, “The Multicellular Effects of VDAC1 N-Terminal-Derived Peptide” (Biomolecules, 2022).

The test has as its target voltage-dependent anion channel 1 (VDAC1), purified, fluorescently labeled (UniProt P21796). The experiment in a line: MST; fluorescently labeled VDAC1 (138 nM) incubated with actin (10–500 nM) or tubulin (20–2000 nM); 10 mM Tricine pH 7.4, 100 mM NaCl; incubation 20 min (methods) or 30 min at 37 °C (legend, actin); NanoTemper Monolith-NT115.

“actin purified from rabbit muscle (G-actin) (from UniProt P68135 1-377) (natural protein; other documents disagree on this pair)”: the Kd was found to be 30 nM.
